Measurements taken from patent EP1034782A1, “Treatment of depression by using compounds which elevate the intracellular sodium concentration” (Singer, Andrea, priority 1999, dated 2000).

Chains of the proteins cited; added tags and fusions are not shown.
UniProt P31645, whole entry: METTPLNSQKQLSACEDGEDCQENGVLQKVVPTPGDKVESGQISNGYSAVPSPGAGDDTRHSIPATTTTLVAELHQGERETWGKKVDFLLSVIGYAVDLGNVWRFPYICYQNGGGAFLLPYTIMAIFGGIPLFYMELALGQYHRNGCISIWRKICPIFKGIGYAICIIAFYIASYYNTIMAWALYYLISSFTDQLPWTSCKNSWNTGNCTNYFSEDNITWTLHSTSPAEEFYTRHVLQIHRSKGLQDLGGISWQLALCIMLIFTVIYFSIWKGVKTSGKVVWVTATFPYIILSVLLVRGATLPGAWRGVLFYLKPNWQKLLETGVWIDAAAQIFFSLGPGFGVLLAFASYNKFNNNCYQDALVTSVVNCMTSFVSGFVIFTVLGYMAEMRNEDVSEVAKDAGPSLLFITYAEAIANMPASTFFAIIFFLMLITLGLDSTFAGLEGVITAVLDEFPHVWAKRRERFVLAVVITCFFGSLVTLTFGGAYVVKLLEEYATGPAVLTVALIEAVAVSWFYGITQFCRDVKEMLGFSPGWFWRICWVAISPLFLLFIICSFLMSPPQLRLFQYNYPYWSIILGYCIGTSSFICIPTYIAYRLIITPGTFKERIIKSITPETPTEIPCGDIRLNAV

Target: human serotonin transporter (Homo sapiens, UniProt P31645)
Assay: ^3H-serotonin uptake in platelets

`CC(C)=CCCC1(C)C(CC=C(C)C)CC2(CC=C(C)C)C(=O)C(CC=C(C)C)=C(O)C1(C(=O)C(C)C)C2=O` (centres unmarked) [Hyperforin] showed an IC50 of 0.887 µM and an inhibition at 5 µM (read-out: uptake inhibition) of roughly 75%.
